This is an account of results in patent publication US20090099157A1, “TETRAHYDRO-PYRAZOLO-PYRIDINE THIOETHER MODULATORS OF CATHEPSIN S” (priority 2007, published 2009).

The chains behind the UniProt entries cited, without tags or fusion partners. Residues count along the entry.
UniProt P25774, 115-331: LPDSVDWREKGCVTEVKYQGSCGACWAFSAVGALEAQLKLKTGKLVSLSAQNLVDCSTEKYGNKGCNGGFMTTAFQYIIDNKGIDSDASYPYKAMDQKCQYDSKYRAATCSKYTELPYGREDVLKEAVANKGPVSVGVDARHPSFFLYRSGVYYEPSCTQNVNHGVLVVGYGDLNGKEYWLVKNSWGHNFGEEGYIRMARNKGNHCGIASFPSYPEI

pIC50: −log10 of the molar value.

The experiment addresses Recombinant human cathepsin S (CatS) (Homo sapiens, UniProt P25774). The experiment is described as follows: biochemical.

What is called pIC50 is −log10 of the IC50, conventionally taken in molar units. As for `OC(CN1CCC(Oc2ncccn2)CC1)Cn1nc(-c2ccc(C(F)(F)F)c(SCCN3CCC(F)CC3)c2)c2c1CCNC2` (stereo not shown) [Example 490, 1-{3-[3-{[2-(4-Fluoropiperidin-1-yl)ethyl]sulfanyl}-4-(trifluoromethyl)phenyl]-4,5,6,7-tetrahydro-1H-pyrazolo[4,3-c]pyridin-1-yl}-3-[4-(pyrimidin-2-yloxy)piperidin-1-yl]propan-2-ol], the pIC50 was 5.99.

Turning to `CS(=O)(=O)N1CCc2c(c(-c3ccc(C(F)(F)F)c(SCC(=O)N4CCC(O)CC4)c3)nn2CCCN2CCC(N3CCCC3=O)CC2)C1` [Example 78], the pIC50 was 6.85.

Consider `CS(=O)(=O)N1CCc2c(c(-c3ccc(C(F)(F)F)c(SCCN4CC[C@H](F)C4)c3)nn2C[C@@H](O)CN2CCOCC2)C1` [Example 358, (2S)-1-{3-[3-({2-[(3S)-3-Fluoropyrrolidin-1-yl]ethyl}sulfanyl)-4-(trifluoromethyl)phenyl]-5-(methylsulfonyl)-4,5,6,7-tetrahydro-1H-pyrazolo[4,3-c]pyridin-1-yl}-3-morpholin-4-ylpropan-2-ol], for which the pIC50 is 5.68.

Regarding `CCCNCCSc1cc(-c2nn(CCCN3CCC(C(=O)N4CCCCC4)CC3)c3c2CN(S(C)(=O)=O)CC3)ccc1C(F)(F)F` [Example 152, N-[2-({5-[5-(Methylsulfonyl)-1-{3-[4-(piperidin-1-ylcarbonyl)piperidin-1-yl]propyl}-4,5,6,7-tetrahydro-1H-pyrazolo[4,3-c]pyridin-3-yl]-2-(trifluoromethyl)phenyl}sulfanyl)ethyl]propan-1-amine], the pIC50 is 6.70.

Regarding `Oc1ccccc1N1CCN(C[C@H](O)Cn2nc(-c3ccc(C(F)(F)F)c(SCCN4CCC(F)CC4)c3)c3c2CCNC3)CC1` [Example 478, 2-{4-[(2S)-3-{3-[3-{[2-(4-Fluoropiperidin-1-yl)ethyl]sulfanyl}-4-(trifluoromethyl)phenyl]-4,5,6,7-tetrahydro-1H-pyrazolo[4,3-c]pyridin-1-yl}-2-hydroxypropyl]piperazin-1-yl}phenol], the pIC50 is 6.46.

Consider `CC(C)(C)C1CCN(C[C@H](O)Cn2nc(-c3ccc(C(F)(F)F)c(SCCN4CCC(F)CC4)c3)c3c2CCN(S(C)(=O)=O)C3)CC1` [Example 205, (2S)-1-[4-(1,1-Dimethylethyl)piperidin-1-yl]-3-{3-[3-{[2-(4-fluoropiperidin-1-yl)ethyl]sulfanyl}-4-(trifluoromethyl)phenyl]-5-(methylsulfonyl)-4,5,6,7-tetrahydro-1H-pyrazolo[4,3-c]pyridin-1-yl}propan-2-ol], for which the pIC50 was 7.52.

Regarding `CS(=O)(=O)N1CCc2c(c(-c3ccc(C(F)(F)F)c(SCCN4CCCC(CO)C4)c3)nn2CC(O)CN2CCC(c3ccncc3)CC2)C1` (stereo not shown) [Example 775, 1-{3-[3-({2-[3-(Hydroxymethyl)piperidin-1-yl]ethyl}sulfanyl)-4-(trifluoromethyl)phenyl]-5-(methylsulfonyl)-4,5,6,7-tetrahydro-1H-pyrazolo[4,3-c]pyridin-1-yl}-3-(4-pyridin-4-ylpiperidin-1-yl)propan-2-ol], the pIC50 is 7.15.

`CC(=O)N1CCN(CCCn2nc(-c3ccc(C(F)(F)F)c(SCC(=O)N4CCOCC4)c3)c3c2CCN(S(C)(=O)=O)C3)CC1` [Example 112, 2-(5-{1-[3-(4-Acetyl-piperazin-1-yl)-propyl]-5-methanesulfonyl-4,5,6,7-tetrahydro-1H-pyrazolo[4,3-c]pyridin-3-yl}-2-trifluoromethyl-phenylsulfanyl)-1-morpholin-4-yl-ethanone]: the pIC50 is 6.49.

On to `CS(=O)(=O)N1CCc2c(c(-c3ccc(C(F)(F)F)c(SCCN4CCCC(F)(F)C4)c3)nn2C[C@@H](O)CN2CCOCC2)C1` [Example 513, (2S)-1-{3-[3-{[2-(3,3-Difluoropiperidin-1-yl)ethyl]sulfanyl}-4-(trifluoromethyl)phenyl]-5-(methylsulfonyl)-4,5,6,7-tetrahydro-1H-pyrazolo[4,3-c]pyridin-1-yl}-3-morpholin-4-ylpropan-2-ol], for which the pIC50 is 6.77.

Take `CC1(O)CCN(CC(O)Cn2nc(-c3ccc(C(F)(F)F)c(SCC(=O)N4CCCC4)c3)c3c2CCNC3)CC1` (stereo not shown) [Example 301, 1-[2-Hydroxy-3-(3-{3-[(2-oxo-2-pyrrolidin-1-ylethyl)sulfanyl]-4-(trifluoromethyl)phenyl}-4,5,6,7-tetrahydro-1H-pyrazolo[4,3-c]pyridin-1-yl)propyl]-4-methylpiperidin-4-ol]: the pIC50 was 5.07.

Turning to `CC1(C)CCN(C[C@@H](O)Cn2nc(-c3ccc(C(F)(F)F)c(SCCN4CCC(F)CC4)c3)c3c2CCN(S(C)(=O)=O)C3)CC1` [Example 561, (2R)-1-(4,4-Dimethylpiperidin-1-yl)-3-{3-[3-{[2-(4-fluoropiperidin-1-yl)ethyl]sulfanyl}-4-(trifluoromethyl)phenyl]-5-(methylsulfonyl)-4,5,6,7-tetrahydro-1H-pyrazolo[4,3-c]pyridin-1-yl}propan-2-ol], the pIC50 was 6.68.

Regarding `CCS(=O)(=O)N1CCc2c(c(-c3ccc(C(F)(F)F)c(SCCN4CCC(F)CC4)c3)nn2CC(O)CN2CCCCC2)C1` (stereo not shown) [Example 190, 1-{5-(Ethylsulfonyl)-3-[3-{[2-(4-fluoropiperidin-1-yl)ethyl]sulfanyl}-4-(trifluoromethyl)phenyl]-4,5,6,7-tetrahydro-1H-pyrazolo[4,3-c]pyridin-1-yl}-3-piperidin-1-ylpropan-2-ol], the pIC50 was 6.62.

In the case of `CS(=O)(=O)N1CCc2c(c(-c3ccc(C(F)(F)F)c(SCCN4CCCCC4)c3)nn2CC(O)CN2CCN(c3ccccc3C#N)CC2)C1` (stereo not shown) [Example 156, 2-(4-{2-Hydroxy-3-[5-(methylsulfonyl)-3-{3-[(2-piperidin-1-ylethyl)sulfanyl]-4-(trifluoromethyl)phenyl}-4,5,6,7-tetrahydro-1H-pyrazolo[4,3-c]pyridin-1-yl]propyl}piperazin-1-yl)benzonitrile], the pIC50 was 8.00.

With `CC1CCCCN1C(=O)CSc1cc(-c2nn(CCCN3CCC(N4CCCC4=O)CC3)c3c2CN(S(C)(=O)=O)CC3)ccc1C(F)(F)F` (stereo not shown) [Example 81, 1-{1-[3-(5-Methanesulfonyl-3-{3-[2-(2-methyl-piperidin-1-yl)-2-oxo-ethylsulfanyl]-4-trifluoromethyl-phenyl}-4,5,6,7-tetrahydro-pyrazolo[4,3-c]pyridin-1-yl)-propyl]-piperidin-4-yl}-pyrrolidin-2-one], the pIC50 was 6.72.

`Cn1c(=O)n(C2CCN(CCCn3nc(-c4ccc(C(F)(F)F)c(SCC(=O)N5CCOCC5)c4)c4c3CCN(S(C)(=O)=O)C4)CC2)c2cc(Cl)ccc21` [Example 889, 5-Chloro-1-methyl-3-(1-{3-[5-(methylsulfonyl)-3-{3-[(2-morpholin-4-yl-2-oxoethyl)sulfanyl]-4-(trifluoromethyl)phenyl}-4,5,6,7-tetrahydro-1H-pyrazolo[4,3-c]pyridin-1-yl]propyl}piperidin-4-yl)-1,3-dihydro-2H-benzimidazol-2-one]: the pIC50 is 7.70.

On to `CS(=O)(=O)N1CCc2c(c(-c3ccc(Cl)c(SCc4ccc(F)cc4)c3)nn2CCCN2CCOCC2)C1` [Example 136, 3-[4-Chloro-3-(4-fluoro-benzylsulfanyl)-phenyl]-5-methanesulfonyl-1-(3-morpholin-4-yl-propyl)-4,5,6,7-tetrahydro-1H-pyrazolo[4,3-c]pyridine], for which the pIC50 was 6.17.

`COc1ccccc1C1CCN(C[C@H](O)Cn2nc(-c3ccc(C(F)(F)F)c(SCCN4CCC(F)CC4)c3)c3c2CCNC3)CC1` [Example 563, (2S)-1-{3-[3-{[2-(4-Fluoropiperidin-1-yl)ethyl]sulfanyl}-4-(trifluoromethyl)phenyl]-4,5,6,7-tetrahydro-1H-pyrazolo[4,3-c]pyridin-1-yl}-3-{4-[2-(methyloxy)phenyl]piperidin-1-yl}propan-2-ol]: the negative-log IC50 (pIC50) was 6.82.

As for `CS(=O)(=O)N1CCc2c(c(-c3ccc(C(F)(F)F)c(SCCN4CCC(F)(F)CC4)c3)nn2C[C@@H](O)CN2CCC(C3CCCCC3)CC2)C1` [Example 214, (2S)-1-(4-Cyclohexylpiperidin-1-yl)-3-{3-[3-{[2-(4,4-difluoropiperidin-1-yl)ethyl]sulfanyl}-4-(trifluoromethyl)phenyl]-5-(methylsulfonyl)-4,5,6,7-tetrahydro-1H-pyrazolo[4,3-c]pyridin-1-yl}propan-2-ol], the pIC50 is 7.70.

On to `COc1ccc(C2CCN(C[C@H](O)Cn3nc(-c4ccc(C(F)(F)F)c(SCCN5CCC(F)CC5)c4)c4c3CCNC4)CC2)cc1` [Example 564, (2S)-1-{3-[3-{[2-(4-Fluoropiperidin-1-yl)ethyl]sulfanyl}-4-(trifluoromethyl)phenyl]-4,5,6,7-tetrahydro-1H-pyrazolo[4,3-c]pyridin-1-yl}-3-{4-[4-(methyloxy)phenyl]piperidin-1-yl}propan-2-ol], for which the pIC50 is 6.64.

As to `CCN1CCc2c(c(-c3ccc(C(F)(F)F)c(SCC(=O)N4CCCC4)c3)nn2CC(O)CN2CCC(N3CCCC3=O)CC2)C1` (stereo not shown) [Example 281, 1-{1-[3-(5-Ethyl-3-{3-[(2-oxo-2-pyrrolidin-1-ylethyl)sulfanyl]-4-(trifluoromethyl)phenyl}-4,5,6,7-tetrahydro-1H-pyrazolo[4,3-c]pyridin-1-yl)-2-hydroxypropyl]piperidin-4-yl}pyrrolidin-2-one], the pIC50 is 5.81.

Regarding `CS(=O)(=O)N1CCc2c(c(-c3ccc(C(F)(F)F)c(SCCN4CCC(CCO)CC4)c3)nn2CCCN2CCC(N3CCCC3=O)CC2)C1` [Example 24, 1-(1-{3-[3-(3-{2-[4-(2-Hydroxy-ethyl)-piperidin-1-yl]-ethylsulfanyl}-4-trifluoromethyl-phenyl)-5-methanesulfonyl-4,5,6,7-tetrahydro-pyrazolo[4,3-c]pyridin-1-yl]-propyl}-piperidin-4-yl)-pyrrolidin-2-one], the pIC50 was 6.46.

Consider `CC(C)(C)OC(=O)NCCSc1cc(-c2nn(CC(O)CN3CCC(N4CCCC4=O)CC3)c3c2CN(S(C)(=O)=O)CC3)ccc1C(F)(F)F` (stereo not shown) [Example 61, {2-[5-(1-{2-Hydroxy-3-[4-(2-oxo-pyrrolidin-1-yl)-piperidin-1-yl]-propyl}-5-methanesulfonyl-4,5,6,7-tetrahydro-1H-pyrazolo[4,3-c]pyridin-3-yl)-2-trifluoromethyl-phenylsulfanyl]-ethyl}-carbamic acid tert-butyl ester], for which the pIC50 was 6.60.
